What was measured:
[1] = test system: GT-1b Huh-lunet cells; assay: Biological Example 4: antiviral combination studies with Compound 5 (MacSynergy II); type: cell-based, HCV; settings: in combination with Compound 5, 1b replicon cells
[2] = test system: Genotype 1b replicon cells; assay: Biological Example 6: compound combination replicon cure assay; settings: 6 days; Compound 6 at 4 pM, Compound 4 at 1000 nM, Compound 1 at 10 nM, Compound 3 at 26.25 nM
[3] = test system: HCV genotype 1a replicon cells (Huh7-lunet); assay: Biological Example 7: compound combination HCV viral load drop assay / replicon cure

SMILES: Fc1ccccc1-c1nc2ccn(Cc3ccc(-c4ccc(C(F)(F)F)cc4C(F)(F)F)nn3)cc-2n1 [Compound 1, 5-((6-(2,4-bis(trifluoromethyl)phenyl)pyridazin-3-yl)methyl)-2-(2-fluorophenyl)-5H-imidazo[4,5-c]pyridine]
- Interaction [1]: Moderate synergy (Moderate synergy if volumes are >50 and ≦100 nM^2)

SMILES: CC[C@@H]1C[C@]1(NC(=O)[C@@H]1C[C@@H](Oc2cc(-c3csc(NC(C)C)n3)nc3c(Cl)c(OCCN4CCOCC4)ccc23)CC1C(=O)[C@@H](NC(=O)O[C@@H]1C[C@@H]2C[C@@H]2C1)C(C)(C)C)C(=O)O (stereo partly shown) [Compound 3]
- Replicon RNA log drop [2]: −0.9 log

SMILES: CC1=CC[C@H](C(=O)N(c2cc(C#CC(C)(C)C)sc2C(=O)O)[C@H]2CC[C@](O)(CO[C@H]3CCOC3)CC2)CC1 [Compound 5, 5-(3,3-dimethylbut-1-yn-1-yl)-3-[(cis-4-hydroxy-4-{[(3S)-tetrahydrofuran-3-yloxy]methyl}cyclohexyl){[(1R)-4-methylcyclohex-3-en-1-yl]carbonyl}amino]thiophene-2-carboxylic acid]
- Maximum Replicon RNA log10 drop ([3]; 10 EC50): −2.80 log10
- Uncured Colony Number ([3]; 10 EC50): 1581
- Maximum Replicon RNA log10 drop ([3]; 100 EC50): −4.08 log10
- Uncured Colony Number ([3]; 100 EC50): 534

SMILES: COC(=O)N[C@H](C(=O)N1CC2(CC2)C[C@H]1c1ncc(-c2ccc3c(c2)C(F)(F)c2cc(-c4ccc5nc([C@@H]6[C@H]7CC[C@H](C7)N6C(=O)[C@@H](NC(=O)OC)C(C)C)[nH]c5c4)ccc2-3)[nH]1)C(C)C [Compound 6, (1-{3-[6-(9,9-Difluoro-7-{2-[5-(2-methoxycarbonylamino-3-methyl-butyryl)-5-aza-spiro[2.4]hept-6-yl]-3H-imidazol-4-yl}-9H-fluoren-2-yl)-1H-benzoimidazol-2-yl]-2-aza-bicyclo[2.2.1]heptane-2-carbonyl}-2-methyl-propyl)-carbamic acid methyl ester]
- Interaction [1]: Minor synergy (Minor synergy if volumes are >25 and <50 nM^2)

Reference: patent US9452154B2, “Methods for treating HCV” (Gilead Sciences, Inc., priority 2010, dated 2016)
